According to PubChem BioAssay AID686970 (National Center for Advancing Translational Sciences (NCATS), 2013):
The entries are a selection whose mix differs from that of the whole data set. Some of these compounds have results that are not shown, active ones among them. Inconclusive results are not listed. Activity calls are given as the source filed them. The call rests on the fitted dose curve; in most records, active means well fitted cell-killing curve with a large enough effect; inconclusive means small, poorly fitted or top-dose-only effect, or effect the other way; inactive means flat fitted curve, though single readings scatter.

Test: qHTS for induction of synthetic lethality in tumor cells producing 2HG: qHTS for the HT-1080-NT fibrosarcoma cell line;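 further: NT is the 2HG producing partner of a matched IDH1 knockdown line; 0% = DMSO-treated cells and -100% = media-only wells without cells; nearly all actives have a fitted effect of over 55% in size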
Conditions: HT-1080-NT fibrosarcoma viability, CellTiter-Glo ATP luminescence, 48 h; at 46.1 µM (top of the series)

Row | Compound | activity, negative = less viability
1 | O=C(OC1CN2CCC1CC2)C(CO)(c1ccccc1)c1ccccc1 (stereo unspecified) | inactive: -2.65%
2 | CC(C)Oc1ccc(C(=O)NCC2(N(C)C)CCCCC2)cc1 | inactive: 10.7%
3 | O=C(OCCN1CCCC1)C(O)(c1ccccc1)c1ccccc1 | inactive: 9.31%
4 | CN(C)c1cccc(C(=O)NCC2(N(C)C)CCCCC2)c1 | inactive: -2.04%
5 | C=C(C)C#CC(O)(C(=O)OC1CCN(C)CC1)c1ccccc1 (stereo unspecified) | inactive: -7.1%
6 | COc1ccc(Br)c(C(=O)NCC2(N3CCCCC3)CCCCC2)c1 | inactive: -1.2%
7 | COc1cc(C(=O)NCC2(N(C)C)CCCCC2)c([N+](=O)[O-])cc1OC | inactive: 6.05%
8 | CN(C)C1(CNC(=O)c2ccc(Br)cc2)CCCCC1 | inactive: 0.814%
9 | O=C(NCC1(N2CCCCC2)CCCCC1)c1cccc(Cl)c1 | inactive: -20.5%
10 | COc1cccc(C(=O)NCC2(N3CCCCC3)CCCCC2)c1 | inactive: 10.3%
11 | COc1ccc(Cl)cc1C(=O)NCC1(N(C)C)CCCCC1 | inactive: 17.9%
12 | Cc1ccccc1C(=O)NCC1(N2CCCCC2)CCCCC1 | inactive: -3.26%
13 | CN(C)c1ccc(C(=O)NCC2(N(C)C)CCCCC2)cc1 | inactive: -7.75%
14 | CN(C)C1CCCC1OC(=O)C(O)(c1ccccc1)c1ccccc1 (stereo unspecified) | inactive: 10.5%
15 | COc1ccc(C(=O)NCC2(N(C)C)CCCCC2)cc1 | inactive: 6.3%
16 | CCN1CCCC(OC(=O)C2(O)c3ccccc3C=Cc3ccccc32)C1 (stereo unspecified) | inactive: -13.4%
17 | Cc1cc(C(=O)NCC2(N3CCCCC3)CCCCC2)ccc1[N+](=O)[O-] | inactive: 9.11%
18 | O=C(NCC1(N2CCCCC2)CCCCC1)c1cccc(Br)c1 | inactive: -25.6%
19 | C=CCN1CCN(CCOC(=O)C(O)(c2ccccc2)c2ccccc2)CC1 | inactive: 0.348%
20 | O=C(NCC1(N2CCCCC2)CCCCC1)c1cc(F)c(F)cc1Cl | inactive: -0.967%
21 | CN1[C@@H]2CC[C@H]1CC(OC(=O)C(O)(c1ccccc1)c1ccccc1)C2 (stereo partly specified) | inactive: -4.95%
22 | O=C(NCC1(N2CCCCC2)CCCCC1)c1cc([N+](=O)[O-])ccc1Cl | inactive: -0.218%
23 | Cc1ccc(C(=O)NCC2(N3CCCCC3)CCCCC2)cc1 | inactive: -6.17%
24 | CCN(CC)CC(C)C(C)OC(=O)C(O)(c1ccccc1)c1ccccc1 (stereo unspecified) | inactive: -26.6%
25 | COc1cc(SC)ccc1C(=O)NCC1(N(C)C)CCCCC1 | inactive: 9.11%
26 | CC(C)N1C(=O)CC2(CCN(CCOC(=O)C(O)(c3ccccc3)c3ccccc3)CC2)C1=O | inactive: 4.42%
